Data reported in paper PMC5341816.

Target: epidermal growth factor receptor (EGFR) (human (endogenous in SW1990)) (UniProt P00533)
Test: FRAP (fluorescence recovery after photobleaching) on live cells; SW1990 cells, treated or not with 1,3,4-O-Bu3ManNAc for 48 h (serum starved for the last 24 h); 2.0 ug/mL Alexa Fluor 488-conjugated EGF kept unbound in the bath; 37 C; Live Cell Imaging Solution with 1.0% BSA and 20 mM glucose; 3.0 by 1.0 um membrane region bleached; one phase exponential association fit gives t0.5

Alexa Fluor 488-conjugated EGF (ligand) was tested, and the t0.5 of fluorescence recovery, EGF in the bath (1,3,4-O-Bu3ManNAc-treated cells) was 7.5 s and the t0.5 of fluorescence recovery, EGF in the bath (control cells) was 8.37 s.
